# Target: T1, hSK4 (Homo sapiens, UniProt O15554)
# T1 construct: expressed in transfected cells; host or cells: HEK293 Kir 2.1 + mutated Nav cells, transient expression via baculovirus vector
# Test: Cell death assay in SK4 test cells (Kir 2.1+IFM/QQQ+SK4 cells)
# Format: cell-based
# Conditions: added together with DCEBIO, 100 nM Ca ion
# Source text: hSK2 and hSK4, which are each one type of human-derived Ca ion-activated ion channel, were respectively subcloned in a baculovirus vector, which is a viral vector, and were inserted into the Kir 2.1 #mutated Nav cells prepared in Second Embodiment to prepare hSK2 transiently expressing Kir 2.1+IFM/QQQ+SK2 cells (referred to herebelow as SK2 test cells) and hSK4 transiently expressing Kir 2.1+IFM/QQQ+SK4 cells (referred to herebelow as SK4 test cells). Sf-900 III SFM (Thermo Fisher Scientific) was used for the culture medium for baculovirus vector production, and Dulbecco's Modified Eagle Medium (D-MEM) culture medium supplemented with 10% fetal bovine serum (FBS) was used as the culture medium for the test cells.
compound,measurement,value
Clc1ccccc1C(c1ccccc1)(c1ccccc1)n1cccn1 [TRAM34],effect of inhibitor on DCEBIO-mediated inhibition of cell death,the DCEBIO-mediated inhibition of cell death was extinguished

# From patent publication US11828750B2, “Material for screening for compound acting on ION channel and use thereof” (PUBLIC UNIVERSITY CORPORATION NAGOYA CITY UNIVERSITY, priority 2016, dated 2023)
